Data taken from publication PMC10384010, “Chromatographic Data in Statistical Analysis of BBB Permeability Indices” (Membranes, 2023).

Key:
[1] = Reversed-phase TLC on RP-2 silanized plates (Rf); assay type: physicochemical; settings: pH 7.4
[2] = Normal-phase TLC on silica gel 60 F254 (Rf); assay type: physicochemical; settings: pH 7.4
[3] = entering the CNS / not entering the CNS; ref Drugbank [36]; cited from earlier work
[4] = in vivo; cited from earlier work
[5] = cited from earlier work

Compound	RP (Rf from RP-2 TLC plate) [1]	NP (Rf from NP TLC plate) [2]	CNS+/- [3]	Kp,uu,brain (unbound brain-to-plasma drug partition coefficient) [4]	PB (protein binding) [5]
CN1C(=O)CN=C(c2ccccc2)c2cc(Cl)ccc21 [diazepam]	0.77	0.95			
NCC1(CC(=O)O)CCCCC1 [gabapentin]			1		
Cc1cc2c(s1)Nc1ccccc1N=C2N1CCN(C)CC1 [olanzapine]	0.53	0.28		2.13	0.175
Cc1nc2n(c(=O)c1CCN1CCC(c3noc4cc(F)ccc34)CC1)CCCC2 [risperidone]	0.62	0.29		0.21	
